Amino acid sequences for entries named in this document (tags omitted). Chains listed by the source or under a name are the forms on record and can include a tag or linker.
UniProt O00408, other isoform, or with tags, fused parts or gaps: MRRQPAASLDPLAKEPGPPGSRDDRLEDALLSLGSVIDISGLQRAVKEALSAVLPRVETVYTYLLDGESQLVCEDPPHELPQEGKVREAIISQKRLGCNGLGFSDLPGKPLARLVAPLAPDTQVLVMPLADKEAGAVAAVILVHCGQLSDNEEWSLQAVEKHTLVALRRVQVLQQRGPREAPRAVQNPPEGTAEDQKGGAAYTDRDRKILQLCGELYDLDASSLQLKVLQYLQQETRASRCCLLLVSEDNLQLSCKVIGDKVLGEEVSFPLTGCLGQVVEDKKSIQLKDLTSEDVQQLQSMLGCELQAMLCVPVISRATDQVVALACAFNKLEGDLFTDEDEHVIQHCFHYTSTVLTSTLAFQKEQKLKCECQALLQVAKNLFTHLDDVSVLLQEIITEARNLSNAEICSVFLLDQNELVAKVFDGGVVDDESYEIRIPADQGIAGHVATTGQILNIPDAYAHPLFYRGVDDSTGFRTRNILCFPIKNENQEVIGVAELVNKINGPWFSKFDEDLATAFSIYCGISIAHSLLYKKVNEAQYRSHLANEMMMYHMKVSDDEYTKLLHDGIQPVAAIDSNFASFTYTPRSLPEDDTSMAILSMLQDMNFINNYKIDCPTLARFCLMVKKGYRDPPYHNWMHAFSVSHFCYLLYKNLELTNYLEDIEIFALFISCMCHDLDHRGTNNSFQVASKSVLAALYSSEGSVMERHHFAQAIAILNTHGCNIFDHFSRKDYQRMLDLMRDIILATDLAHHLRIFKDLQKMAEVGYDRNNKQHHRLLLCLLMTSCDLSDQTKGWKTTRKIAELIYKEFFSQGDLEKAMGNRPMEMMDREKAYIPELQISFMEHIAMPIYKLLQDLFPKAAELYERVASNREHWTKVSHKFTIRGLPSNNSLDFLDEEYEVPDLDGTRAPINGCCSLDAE

In US10195201B2, “Heteroaryl-pyrimidinone compounds as PDE2 inhibitors” (Merck Sharp & Dohme Corp., priority 2015, dated 2019):

Target: human PDE2A1 (Homo sapiens (Human), UniProt O00408)
Assay: PDE2 fluorescence polarization (IMAP FP) inhibition assay, human enzyme
Type: biochemical
Conditions: LabB; read-out: hPDE2 Ki (nM) LabB
Protocol: The activity of the compounds in accordance with the present invention as PDE2 inhibitors may be readily determined using a fluorescence polarization (FP) methodology (Huang, W., et al., J. Biomol Screen, 2002, 7: 215).
Selectivity for PDE2, as compared to other PDE families, was assessed using the IMAPR technology. Human PDE10A2 enzyme was prepared from cytosolic fractions of transiently transfected HEK cells. […]
Assays for PDE 1 through 11 were performed in parallel at room temperature in 384-well microtiter plates with an incubation volume of 20.2 μL. […] The plates were incubated at room temperature for one hour, then the parallel and perpendicular fluorescence was measured using a Tecan Genios Pro plate reader (Tecan, Switzerland). The apparent inhibition constants for the compounds against all 11 PDE's was determined from the parallel and perpendicular fluorescent readings as described for PDE10 FP assay using the following apparent KM values for each enzyme and substrate combination: PDE1A (FAM cGMP) 70 nM, human PDE2A1 (FAM cAMP) 10,000 nM, PDE3A (FAM cAMP) 50 nM, PDE4A1A (FAM cAMP) 1500 nM, PDE5A1 (FAM cGMP) 400 nM, PDE6C (FAM cGMP) 700 nM, PDE7A (FAM cAMP) 150 nM, PDE8A1 (FAM cAMP) 50 nM, PDE9A2 (FAM cGMP) 60 nM, […] (FAM cAMP) 150 nM, PDE11A4 (FAM cAMP) 1000 nM. […]

Ki: 45 nM
Compound: Cc1nc(-c2cn([C@H](C)c3ccc(C(F)(F)F)cc3F)cn2)cc(=O)[nH]1 (single isomer, unassigned) [Example 15]
